Measured values from ChEMBL document CHEMBL4619775, “2-Arylbenzo[d]oxazole Phosphinate Esters as Second-Generation Modulators of Utrophin for the Treatment of Duchenne Muscular Dystrophy” (J Med Chem, 2020).

Conditions: mouse, in vivo, iv, 1 mg/kg

Q: With `CCP(=O)(OC)c1ccc2oc(-c3ccc(F)cc3)nc2c1` (single isomer, unassigned; (+)) as the compound, how does the Cmax read?
A: 615 ng/mL
